Tests used:
BR513 = assay: Biochemical Induction Assay (BIA), DNA damage; type: cell-based; details: T = toxic
CaCo2 / CX1 = assay: SRB cytotoxicity ratio CaCo2/CX1 (growth kinetics); details: IC50 resistant / IC50 sensitive cell line, 2880 min
[1] = system: Ovcar3 human ovarian carcinoma; assay: In vivo antitumor activity, Ovcar3 subcutaneous solid tumor; set-up: species or system human tumor in Balb/C nu/nu athymic mice; details: 5.0 mg/kg i.p., day 1, 5, 9; 3-4 week period; * Significant at P > 0.05
MIP / SW620 = assay: SRB cytotoxicity ratio MIP/SW620 (MDR, P-glycoprotein resistance); type: cell-based, human; details: IC50 resistant / IC50 sensitive cell line; MDR (pglycoprotein) resistance; 2880 min
HCT15 / SKBR3 = assay: SRB cytotoxicity ratio HCT15/SKBR3 (topoisomerase resistance); type: cell-based, human; details: IC50 resistant / IC50 sensitive cell line, 2880 min
[2] = system: panel of >20 human tumor cell lines; assay: In vitro tumor panel evaluation, Sulforhodamine B (SRB) cytotoxicity assay; type: cell-based; details: 48 hours
P388 murine leukemia = assay: In vivo antitumor activity, P388 ascites tumor; set-up: species or system murine (mice); details: 5.0 mg/kg i.p., day 1, 5, 9
B. subtilis rec E4 308 = assay: Antibacterial agar diffusion assay; type: cell-based; details: H = hazy zones
B. subtilis 17 = assay: Antibacterial agar diffusion assay; type: cell-based; details: 1000 microgram/ml; H = hazy zones
B. subtilis rec+ 307 = assay: Antibacterial agar diffusion assay; type: cell-based; details: H = hazy zones

## Cn1cc2c3c1C(=O)C(N)=CC3=NCC2.O=C(O)C(F)(F)F
BR513; 250 microgram/ml
  BIA BR513: 8T
BR513; 1000 microgram/ml
  BIA BR513: 10T
CaCo2 / CX1
  CaCO2/CX1 IC50 ratio: 0.3
[1]
  Ovcar3 Min T/C %: 94%
MIP / SW620
  MIP/SW620 IC50 ratio: 1.1
HCT15 / SKBR3
  HCT15/SKBR3 IC50 ratio: 1.9
[2]; Mean IC50 value for all 20 cell lines
  AVG IC50: 1 µg/mL
[2]; least sensitive cell line
  MAX IC50: 2.17 µg/mL
[2]; most sensitive cell line
  MIN IC50: 0.36 µg/mL
P388 murine leukemia
  P388 ILS %: 9%
B. subtilis rec E4 308; 250 microgram/ml
  ZONES OF INHIBITION: 9H
B. subtilis rec E4 308; 1000 microgram/ml
  ZONES OF INHIBITION: 13H
B. subtilis 17
  ZONES OF INHIBITION: 11 MM
B. subtilis rec+ 307; 250 microgram/ml
  ZONES OF INHIBITION: 8 MM
B. subtilis rec+ 307; 1000 microgram/ml
  ZONES OF INHIBITION: 13 MM

Reference: patent US5414001A, “Antineoplastic pyrrolo[4,3,2-de]quinolin-8(1H)-ones” (American Cyanamid Company, priority 1993, dated 1995)
